Test results from ChEMBL document CHEMBL1136415, “3-Acylamino-azetidin-2-one as a novel class of cysteine proteases inhibitors” (Bioorg Med Chem Lett, 2003).

Protein sequences, listed by entry. Tags and fused reporters are not part of them. Lines headed by an entry give the natural chain unless they say otherwise; changes in a name come on top.
UniProt P07711: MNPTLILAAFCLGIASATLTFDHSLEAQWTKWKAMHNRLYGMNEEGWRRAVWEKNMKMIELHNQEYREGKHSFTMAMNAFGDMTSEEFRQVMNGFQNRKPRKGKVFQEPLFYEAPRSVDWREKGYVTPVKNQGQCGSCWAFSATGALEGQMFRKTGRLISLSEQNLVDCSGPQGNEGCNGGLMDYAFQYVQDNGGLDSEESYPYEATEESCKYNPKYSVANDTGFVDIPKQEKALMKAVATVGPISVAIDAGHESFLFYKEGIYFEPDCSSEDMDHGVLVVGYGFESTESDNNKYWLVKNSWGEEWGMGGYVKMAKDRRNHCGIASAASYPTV

Target: Procathepsin L (Homo sapiens, UniProt P07711)
Assay: Inhibition of recombinant human Cathepsin L

Structure (SMILES): O=C(N[C@@H](Cc1ccccc1)C(=O)N[C@@H]1C(=O)N[C@@H]1Oc1ccccc1)OCc1ccccc1
- IC50: 2.6 nM
